AlphaSeq binding of Ab-91 heavy chain variants to a spike HR2 peptide

The measurements come from Engelhart et al. 2022 (doi:10.1038/s41597-022-01779-4) through the FLAb antibody collection.

Antigen: PDVDLGDISGINAS, a 14-residue peptide of the SARS-CoV-2 spike HR2 region.

The variants keep the light chain, the linker and the frameworks of Ab-91 (scFv order VL, three GGGGS repeats, VH).
VL: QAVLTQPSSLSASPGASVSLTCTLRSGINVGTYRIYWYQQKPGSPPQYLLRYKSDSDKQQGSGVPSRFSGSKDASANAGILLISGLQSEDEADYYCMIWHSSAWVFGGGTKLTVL
VH: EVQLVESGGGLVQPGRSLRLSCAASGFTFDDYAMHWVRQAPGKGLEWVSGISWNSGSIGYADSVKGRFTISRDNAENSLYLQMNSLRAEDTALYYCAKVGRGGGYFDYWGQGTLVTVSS

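Phage display of a naive human antibody library on the peptide gave the parent. Library AAYL51 holds single substitutions and randomly drawn double and triple substitutions in the CDRs. AlphaSeq pools MATa yeast showing the antibodies with MATalpha yeast showing the peptide. Mating (16 h, 30 °C) was followed by selection of diploids and sequencing of their barcodes. The ratio of observed to expected reads was calibrated, replicate by replicate, on BCL2-family standards whose Kd was known from biolayer interferometry. Each pool was mated in three replicate cultures.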

Each variant's VH is given in full.
Only single mutants are listed, position by position.
Values are apparent Kd, the geometric mean of the replicates that gave a signal; lower means stronger binding.
Where no diploid with the target was found in any replicate, the entry reads "no signal": below detection, most likely a poor binder, though not proof of it.
Three control strains display no target. For library AAYL51, 21% of the pairings with them gave a signal, with a median of 34 µM and one signal in twenty below 1.8 µM, so weak values seen in few replicates may be background. For each scFv, signals with the empty controls are counted beside the result.

VH | Kd | seen in | control signals
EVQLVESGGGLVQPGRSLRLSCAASGFTFDDYAMHWVRQAPGKGLEWVSGISLNSGSIGYADSVKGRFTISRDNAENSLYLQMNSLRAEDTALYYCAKVGRGGGYFDYWGQGTLVTVSS | no signal | 0 of 3 | 0 of 9
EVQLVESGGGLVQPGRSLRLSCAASGFTFDDYAMHWVRQAPGKGLEWVSGISDNSGSIGYADSVKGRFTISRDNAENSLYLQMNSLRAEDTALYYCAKVGRGGGYFDYWGQGTLVTVSS | 2.6 µM | 3 of 3 | 4 of 9
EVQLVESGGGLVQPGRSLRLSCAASGFTFDDYAMHWVRQAPGKGLEWVSGISWLSGSIGYADSVKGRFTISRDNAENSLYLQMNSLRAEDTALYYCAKVGRGGGYFDYWGQGTLVTVSS | 24 µM | 2 of 3 | 3 of 9
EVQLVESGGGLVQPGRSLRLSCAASGFTFDDYAMHWVRQAPGKGLEWVSGISWHSGSIGYADSVKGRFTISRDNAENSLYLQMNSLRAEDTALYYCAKVGRGGGYFDYWGQGTLVTVSS | no signal | 0 of 3 | 0 of 9
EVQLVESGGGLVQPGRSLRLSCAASGFTFDDYAMHWVRQAPGKGLEWVSGISWTSGSIGYADSVKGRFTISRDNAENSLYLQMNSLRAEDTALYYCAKVGRGGGYFDYWGQGTLVTVSS | no signal | 0 of 3 | 2 of 9
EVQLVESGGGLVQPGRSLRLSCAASGFTFDDYAMHWVRQAPGKGLEWVSGISWPSGSIGYADSVKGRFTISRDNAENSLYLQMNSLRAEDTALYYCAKVGRGGGYFDYWGQGTLVTVSS | 18 µM | 2 of 3 | 1 of 9
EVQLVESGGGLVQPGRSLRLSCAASGFTFDDYAMHWVRQAPGKGLEWVSGISWCSGSIGYADSVKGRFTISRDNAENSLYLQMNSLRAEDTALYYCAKVGRGGGYFDYWGQGTLVTVSS | 7.3 µM | 2 of 3 | 1 of 9
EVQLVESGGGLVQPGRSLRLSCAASGFTFDDYAMHWVRQAPGKGLEWVSGISWWSGSIGYADSVKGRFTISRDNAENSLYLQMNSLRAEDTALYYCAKVGRGGGYFDYWGQGTLVTVSS | 150 µM | 1 of 3 | 1 of 9
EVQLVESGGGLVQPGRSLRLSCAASGFTFDDYAMHWVRQAPGKGLEWVSGISWESGSIGYADSVKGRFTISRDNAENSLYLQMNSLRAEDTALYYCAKVGRGGGYFDYWGQGTLVTVSS | no signal | 0 of 3 | 1 of 9
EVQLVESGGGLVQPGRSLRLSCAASGFTFDDYAMHWVRQAPGKGLEWVSGISWFSGSIGYADSVKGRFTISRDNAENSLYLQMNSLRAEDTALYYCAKVGRGGGYFDYWGQGTLVTVSS | 94 µM | 1 of 3 | 1 of 9
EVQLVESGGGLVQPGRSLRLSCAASGFTFDDYAMHWVRQAPGKGLEWVSGISWDSGSIGYADSVKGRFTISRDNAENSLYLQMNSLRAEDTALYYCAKVGRGGGYFDYWGQGTLVTVSS | no signal | 0 of 3 | 1 of 9
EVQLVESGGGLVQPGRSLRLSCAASGFTFDDYAMHWVRQAPGKGLEWVSGISWISGSIGYADSVKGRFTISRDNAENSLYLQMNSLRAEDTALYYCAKVGRGGGYFDYWGQGTLVTVSS | 39 µM | 1 of 3 | 3 of 9
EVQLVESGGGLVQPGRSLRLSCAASGFTFDDYAMHWVRQAPGKGLEWVSGISWVSGSIGYADSVKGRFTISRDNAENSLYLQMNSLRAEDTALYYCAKVGRGGGYFDYWGQGTLVTVSS | no signal | 0 of 3 | 1 of 9
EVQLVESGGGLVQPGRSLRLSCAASGFTFDDYAMHWVRQAPGKGLEWVSGISWASGSIGYADSVKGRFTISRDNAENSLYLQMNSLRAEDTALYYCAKVGRGGGYFDYWGQGTLVTVSS | 3.4 µM | 3 of 3 | 4 of 9
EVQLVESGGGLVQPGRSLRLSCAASGFTFDDYAMHWVRQAPGKGLEWVSGISWGSGSIGYADSVKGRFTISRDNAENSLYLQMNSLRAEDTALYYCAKVGRGGGYFDYWGQGTLVTVSS | 37 nM | 3 of 3 | 0 of 9
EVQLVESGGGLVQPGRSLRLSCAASGFTFDDYAMHWVRQAPGKGLEWVSGISWQSGSIGYADSVKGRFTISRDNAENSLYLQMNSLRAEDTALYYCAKVGRGGGYFDYWGQGTLVTVSS | 100 nM | 1 of 3 | 0 of 9
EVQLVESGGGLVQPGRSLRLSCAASGFTFDDYAMHWVRQAPGKGLEWVSGISWYSGSIGYADSVKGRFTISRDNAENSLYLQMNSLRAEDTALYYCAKVGRGGGYFDYWGQGTLVTVSS | 120 µM | 2 of 3 | 4 of 9
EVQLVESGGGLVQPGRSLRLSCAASGFTFDDYAMHWVRQAPGKGLEWVSGISWNAGSIGYADSVKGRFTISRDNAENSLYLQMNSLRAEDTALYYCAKVGRGGGYFDYWGQGTLVTVSS | 270 µM | 2 of 3 | 3 of 9
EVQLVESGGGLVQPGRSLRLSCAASGFTFDDYAMHWVRQAPGKGLEWVSGISWNHGSIGYADSVKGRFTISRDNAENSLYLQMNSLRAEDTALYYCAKVGRGGGYFDYWGQGTLVTVSS | 52 µM | 3 of 3 | 2 of 9
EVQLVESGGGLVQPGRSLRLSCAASGFTFDDYAMHWVRQAPGKGLEWVSGISWNQGSIGYADSVKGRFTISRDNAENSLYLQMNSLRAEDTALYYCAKVGRGGGYFDYWGQGTLVTVSS | 34 nM | 3 of 3 | 0 of 9

The 2 strongest on average among those seen in every replicate, once more:

{"VH": "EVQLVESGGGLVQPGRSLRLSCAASGFTFDDYAMHWVRQAPGKGLEWVSGISWNQGSIGYADSVKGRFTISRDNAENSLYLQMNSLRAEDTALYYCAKVGRGGGYFDYWGQGTLVTVSS", "Kd": "34 nM", "seen in": "3 of 3", "control signals": "0 of 9"}
{"VH": "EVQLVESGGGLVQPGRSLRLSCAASGFTFDDYAMHWVRQAPGKGLEWVSGISWGSGSIGYADSVKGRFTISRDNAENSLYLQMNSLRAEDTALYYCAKVGRGGGYFDYWGQGTLVTVSS", "Kd": "37 nM", "seen in": "3 of 3", "control signals": "0 of 9"}